Structures are written as SMILES. pEC50: −log10 of the molar value.

The chains behind the UniProt entries cited, without tags or fusion partners.
UniProt P59537, whole entry W35S/H212R: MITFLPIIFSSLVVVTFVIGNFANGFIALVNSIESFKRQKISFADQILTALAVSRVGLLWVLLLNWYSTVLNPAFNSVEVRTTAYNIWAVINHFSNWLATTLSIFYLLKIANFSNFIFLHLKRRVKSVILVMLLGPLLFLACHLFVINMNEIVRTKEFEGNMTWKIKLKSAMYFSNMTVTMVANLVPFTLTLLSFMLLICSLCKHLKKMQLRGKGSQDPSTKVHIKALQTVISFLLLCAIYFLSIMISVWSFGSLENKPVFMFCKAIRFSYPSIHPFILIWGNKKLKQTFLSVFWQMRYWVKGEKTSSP

This passage reports EC50 results from patent US7955808B2, “Bitter taste receptors” (Deutsches Institut für Ernährungsorschung, Stiftung des …, priority 2002, dated 2011).

For the assay, the target named is hTAS2R43 (Homo sapiens, UniProt P59537, H212R/W35S). The assay can be described thus: cell-based. An excerpt: These cells stably express a chimeric G protein constructed from human Gα16 and rat gustducin. Finally, we seeded the transfected cells at a density of 3×10^3 cells per well into 96-well black-wall, clear-bottom microtiter plates (Greiner).
Co-transfection of TAS2Rs with gustducin and phospholipase-Cβ2 into HEK-293 cells. Alternatively, we transfected simultaneously plasmid DNAs encoding one of the TAS2Rs, phospholipase-Cβ2 and α-gustducin into HEK-293 cells using the lipofectamine method. […] Thereafter, the transfected cells were seeded at a density of 3×10^3 cells per well into 96-well black-wall, clear-bottom microtiter plates (Greiner).
Thereafter, cells were gently washed in HBS by an automated plate washer (Denley Cellwash, Labsystenms) and transferred to the FLIPR (Molecular Devices). The FLIPR integrates an argon laser excitation source, a 96-well pipettor, and a detection system utilizing a Charged Coupled Device imaging camera. […] Fluorescence data were collected 1 min before and 10 min after stimulation. Data were collected every 6 s before and every 1 s after agonist stimulation. […] Agonist responses were quantified using the amplitudes of the fluorescence peaks. […] Calcium traces were determined in triplicate of mock-transfected cells stimulated with the same concentration of tastant.

Broadly, the pEC50 is the negative decadic logarithm of the EC50, by convention in mol/L. The low end stands for a large EC50, the high end for a small EC50. For the compound `O=C1[N-]S(=O)(=O)c2ccccc21.[Na+]` [Saccharin], the negative logarithm of the EC50 (pEC50) was 2.96.
